What was measured:
[1] = target: human recombinant NOP receptor (Homo sapiens, UniProt P41146); conditions: for Emax ± SEM: mean ± SEM of at least 4 separate experiments in duplicate
NOP = conditions: R isomer showing the higher affinity; cited from earlier work

Amino acid sequences for entries named in this document (tags omitted). A change or cut given only in a name is not applied to a line headed by its entry.
UniProt P41146: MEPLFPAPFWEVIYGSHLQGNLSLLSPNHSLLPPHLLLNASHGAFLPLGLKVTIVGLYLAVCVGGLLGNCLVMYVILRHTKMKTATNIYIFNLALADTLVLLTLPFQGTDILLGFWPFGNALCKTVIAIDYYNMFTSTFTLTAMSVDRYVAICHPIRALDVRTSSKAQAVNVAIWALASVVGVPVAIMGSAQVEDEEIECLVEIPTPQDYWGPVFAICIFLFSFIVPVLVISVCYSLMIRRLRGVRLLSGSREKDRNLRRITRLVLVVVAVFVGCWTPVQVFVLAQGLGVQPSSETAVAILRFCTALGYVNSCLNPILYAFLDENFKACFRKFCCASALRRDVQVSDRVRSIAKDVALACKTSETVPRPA

Compound: NC(=O)CCCCCCN1CN(c2ccccc2)C2(CCN(C3Cc4cccc5cccc3c45)CC2)C1=O (centres unmarked)
- pEC50(CL95%) ([1]; Table 3, CHO cells coexpressing NOP receptor and Gαqi5, mean of at least 4 separate experiments in duplicate, CL95% in brackets, * P < 0.05): 8.24 (7.84–8.65)
- Emax ± SEM ([1]; Table 3): 143 ± 9 percent fluorescence intensity over the basal values

Compound: O=C1NCN(c2ccccc2)C12CCN(C1Cc3cccc4cccc1c34)CC2 (centres unmarked)
- difference in NOP affinity between the two enantiomers (NOP): less than ten fold
- Emax ± SEM ([1]; Table 3): 165 ± 14 percent fluorescence intensity over the basal values
- agonist behaviour (efficacy class) ([1]; calcium mobilization assay): full agonist activity
